# Assay results: patent publication US20110085986A1, “Diagnosis and treatment of epithelial cancers using labeled/conjugated progastrin peptides” (priority 2009, published 2011)
# The chains behind the UniProt entries cited, without tags or fusion partners.
# UniProt Q07936, whole entry: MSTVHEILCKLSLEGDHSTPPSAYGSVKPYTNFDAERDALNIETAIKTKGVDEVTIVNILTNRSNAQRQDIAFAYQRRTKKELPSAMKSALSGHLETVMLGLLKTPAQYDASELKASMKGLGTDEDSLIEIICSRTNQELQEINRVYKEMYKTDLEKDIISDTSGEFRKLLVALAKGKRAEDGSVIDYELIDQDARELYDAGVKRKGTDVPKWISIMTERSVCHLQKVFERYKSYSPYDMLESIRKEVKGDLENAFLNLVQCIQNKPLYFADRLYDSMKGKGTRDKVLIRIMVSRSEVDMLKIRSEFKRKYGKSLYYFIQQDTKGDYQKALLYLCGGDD
# What was measured:
# [1] = biological target: T1, Anx A2 (Rattus norvegicus, UniProt Q07936); conditions: Anx A2 prepared from cancer cells/tumor membranes; cited from earlier work
# T1 construct: the 36 kDa Anx A2 protein, prepared from cancer cells/tumor membranes; endogenous in cells
# [2] = biological target: T2, CCK2R (Rattus norvegicus, UniProt P30553); experiment: Relative binding affinity, displacing binding of 125I-BH-CCK8 to CCK2R on AR42J cells; conditions: amidated gastrins; FIG. 2
# T2 construct: 125I-BH-CCK8 to CCK2R (ii) on AR42J cells; endogenous in cells; host or cells: AR42J cells
# T2 sequence (P30553 1-452): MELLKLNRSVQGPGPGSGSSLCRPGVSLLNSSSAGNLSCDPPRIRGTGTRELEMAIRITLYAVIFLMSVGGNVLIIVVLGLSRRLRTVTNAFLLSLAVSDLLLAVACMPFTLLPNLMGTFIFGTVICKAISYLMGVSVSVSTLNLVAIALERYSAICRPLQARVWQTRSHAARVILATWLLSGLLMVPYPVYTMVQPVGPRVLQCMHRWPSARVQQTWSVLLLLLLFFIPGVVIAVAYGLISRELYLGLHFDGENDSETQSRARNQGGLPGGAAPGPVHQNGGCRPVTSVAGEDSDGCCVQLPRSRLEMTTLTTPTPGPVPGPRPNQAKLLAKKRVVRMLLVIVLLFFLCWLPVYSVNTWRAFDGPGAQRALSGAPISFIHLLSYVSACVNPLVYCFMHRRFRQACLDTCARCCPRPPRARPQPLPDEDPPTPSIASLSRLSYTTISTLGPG
# Source text: Plot points represent mean values of triplicate measurements from a representative experiment. The nM concentrations of each peptide used are presented in a log-scale on the x-axis; the excess unlabeled peptide used for displacing the binding of the radio-labeled ligand is presented in parentheses.
# Relative binding affinity (RBA) of gastrins for the 36 kDa Anx A2 protein, prepared from cancer cells/tumor membranes was in the order of PG>G-Gly>G17, with no affinity for cholecystokinin CCK8 (28). […] Adenoma and adenocarcinomas tissue sections (from ovarian and colorectal cancers of patients) were positive for Anx A2 expression, while normal tissues were negative (FIGS. 4, 5A-5B). Immortalized intestinal epithelial cell line (IEC-18) are used, which responds to the growth and anti-apoptotic effects of PG peptides (9), for further investigating the biology of interaction of PG with Anx A2. Intra-cellular translocation of labeled PG was examined in IEC-18 cells. […] Using fluoroscense assisted sorting with labeled anti-Anx A2-Abs, presence of extracellular Anx A2 was confirmed on IEC-18 cells (FIG. 6B).
substance,measurement,setting,value
G17: amidated gastrin (QGPWLEEEEEAYGWMDF) [reference compound],"Relative binding affinity (RBA) for the 36 kDa Anx A2 protein, rank order",[1],PG>G-Gly>G17
same,affinity for CCK2R,[2],much higher affinity
"G34: amidated gastrin (QLGPQGPPHLVADPSKKQGPWLEEEEEAYGWMDF; Big gastrin C-terminal amide; UniProt P01350 59-92, looked up)",affinity for CCK2R,[2],much higher affinity
